This is a selection; strong and weak results do not stand in their true shares. Some results for these compounds are left out of this collection, so the calls shown say nothing about other tests. Activity calls are given as the source filed them.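 Rule for the calls: active = inhibition above the campaign mean of all tested compounds plus 3 SD (cut at about 14% in these data); inactive = the rest.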
target: Serine hydrolase RBBP9 (Homo sapiens) (UniProt O75884); assay: blockers of RBBP9 serine hydrolase labeling – biochemical, fluorescence polarization, FP-Rh probe, HTS, primary screen (AID 1515); conditions: recombinant RBBP9, FP-Rh probe fluorescence polarization; at 7.94 µM; stronger effect = higher value;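 note: plate controls were DMSO wells with RBBP9 for no effect and wells lacking RBBP9 protein for full effect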

By UniProt entry, the sequences of proteins in these tests, tags left out.
UniProt O75884, whole entry: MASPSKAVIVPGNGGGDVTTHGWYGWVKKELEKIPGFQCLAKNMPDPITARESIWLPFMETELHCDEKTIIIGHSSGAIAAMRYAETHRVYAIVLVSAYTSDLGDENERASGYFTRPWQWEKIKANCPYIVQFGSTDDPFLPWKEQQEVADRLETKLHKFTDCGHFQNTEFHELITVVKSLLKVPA

Row | Compound | inhibition
1 | COc1cccc(C(=O)NCC2(N3CCCCC3)CCCCC2)c1 | inactive: -4.52%
2 | O=C(OC1CN2CCC1CC2)C(CO)(c1ccccc1)c1ccccc1 (stereo unspecified) | inactive: -4.06%
3 | CN(C)c1cccc(C(=O)NCC2(N(C)C)CCCCC2)c1 | inactive: -6.87%
4 | COc1ccc(Br)c(C(=O)NCC2(N3CCCCC3)CCCCC2)c1 | inactive: 2.17%
5 | O=C(NCC1(N2CCCCC2)CCCCC1)c1cc([N+](=O)[O-])ccc1Cl | inactive: 8.98%
6 | CC(C)N1C(=O)CC2(CCN(CCOC(=O)C(O)(c3ccccc3)c3ccccc3)CC2)C1=O | inactive: 1.76%
7 | CCN(CC)CC(C)C(C)OC(=O)C(O)(c1ccccc1)c1ccccc1 (stereo unspecified) | inactive: 5.87%
8 | Cc1ccccc1C(=O)NCC1(N2CCCCC2)CCCCC1 | inactive: -9.33%
9 | CN(C)C1CCCC1OC(=O)C(O)(c1ccccc1)c1ccccc1 (stereo unspecified) | inactive: -8.72%
10 | CCN1CCCC(OC(=O)C2(O)c3ccccc3C=Cc3ccccc32)C1 (stereo unspecified) | inactive: 4.81%
11 | C=CCN1CCN(CCOC(=O)C(O)(c2ccccc2)c2ccccc2)CC1 | inactive: -4.85%

From PubChem BioAssay AID1515 (The Scripps Research Institute Molecular Screening Center, 2009)
